We go through 1 molecule from US20230118625A1 (TICAROS, published 2023).

In this test the target is actin (mouse, UniProt P60710 2-375). Briefly: confocal co-localization in CD99-KO T cells expressing the mutant, on anti-CD3-coated coverslips.

B1: CD99 Cyt mutant (mouse CD99 with cytoplasmic domain replaced by that of CD4), fluorescent protein fusion (receptor, not shown: large carriers)
chain: QKLISEEDLNSDDFNLGDALEDPNMKPTPKAPTPKKPSGGFDLEDALPGGGGGGAGEKPGNRPQPDPKPPRPHGDSGGISDSDLADAAGQGGGGAGRRGSGDEGGHGGAGGAEPEGTPQGLVPGVVAAVVAAVAGAVSSFVVRCRHRRR
notes: Expressed in CD99-KO mouse CD8 T cells; also called CD99Cyto-YFP
As to B1, the binding result is listed as “no binding”.
